Source: US20070213324A1 (priority 2006, published 2007)

Assay: Phase I bioavailability study, single dose and steady state
Settings: meloxicam, acute administration

For Cc1cnc(NC(=O)C2=C(O)c3ccccc3S(=O)(=O)N2C)s1 [Meloxicam, 4-hydroxy-2-methyl-N-(5-methyl-2-thiazolyl)-2H-1,2-benzothiazine-3-carboxamide-1,1-dioxide], which “bioequivalence, combined versus on its own” value is on record?
The value was “bioequivalent”.
